Reference: US20050137807A1, “Method of visualization of the ADME properties of chemical substances” (priority 2003, published 2005)

The chains behind the UniProt entries cited, without tags or fusion partners. Residues count along the entry.
UniProt P02768, 25-609: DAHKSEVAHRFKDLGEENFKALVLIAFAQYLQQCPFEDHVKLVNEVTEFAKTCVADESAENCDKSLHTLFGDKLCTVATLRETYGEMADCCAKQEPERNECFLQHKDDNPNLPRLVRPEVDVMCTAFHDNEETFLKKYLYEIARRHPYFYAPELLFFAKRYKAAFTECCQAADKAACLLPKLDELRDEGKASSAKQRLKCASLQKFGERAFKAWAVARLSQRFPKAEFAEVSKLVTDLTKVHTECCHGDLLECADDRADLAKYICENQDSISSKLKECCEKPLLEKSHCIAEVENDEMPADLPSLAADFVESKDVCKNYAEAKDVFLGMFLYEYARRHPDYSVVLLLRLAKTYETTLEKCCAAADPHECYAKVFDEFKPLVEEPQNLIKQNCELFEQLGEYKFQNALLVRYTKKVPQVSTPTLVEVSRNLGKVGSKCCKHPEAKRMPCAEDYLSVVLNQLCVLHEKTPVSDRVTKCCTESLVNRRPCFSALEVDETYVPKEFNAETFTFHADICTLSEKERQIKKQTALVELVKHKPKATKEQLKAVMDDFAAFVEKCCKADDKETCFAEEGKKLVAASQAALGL

Target: human serum albumin (Homo sapiens, UniProt P02768)
Test: binding constant to human serum albumin (TRANSIL technology)
Conditions: log binding constant to human serum albumin

LogHSA: −2.469
Substance: Gentamicin
